Experimental data published in patent US8173133B2, “Acyl pseudodipeptides which carry a functionalized auxiliary arm” (OM Pharma, priority 1999, dated 2012).

Tested on: Limulus Amoebocyte Lysate

## (3R,9R)-3-[(R)-3-dodecanoyloxytetradecanoylamino]-4oxo-5-aza-9-[(R)-3-hydroxytetradecanoylamino]-1,10-diol 1-dihydrogenphosphate 10-(6-aminohexanoate) [OM-197-MP-AC (R, R)]
  LAL EU/mg of product: 0.15 EU/mg of product
  LAL ng of LPS equivalent per mg of product: 0.012 ng of LPS equivalent per mg of product
